Experimental data published in US11572350B1, “Benzothia(di)azepine compounds and their use as bile acid modulators” (Albireo AB, priority 2020, dated 2023).
pIC50: −log10 of the molar value.

Sequences of proteins named here, by UniProt entry; tags and fusion partners are left off.
UniProt Q14973, whole entry: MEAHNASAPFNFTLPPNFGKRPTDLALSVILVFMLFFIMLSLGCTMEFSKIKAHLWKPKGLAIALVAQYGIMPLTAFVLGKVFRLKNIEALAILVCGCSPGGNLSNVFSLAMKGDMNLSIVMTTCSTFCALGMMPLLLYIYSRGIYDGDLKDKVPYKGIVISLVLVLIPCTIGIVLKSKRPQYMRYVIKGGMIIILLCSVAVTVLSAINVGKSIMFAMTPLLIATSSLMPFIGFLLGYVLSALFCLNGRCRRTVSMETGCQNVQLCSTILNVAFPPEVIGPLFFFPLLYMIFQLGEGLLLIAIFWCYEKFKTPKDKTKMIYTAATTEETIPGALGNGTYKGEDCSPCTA
UniProt Q12908, whole entry: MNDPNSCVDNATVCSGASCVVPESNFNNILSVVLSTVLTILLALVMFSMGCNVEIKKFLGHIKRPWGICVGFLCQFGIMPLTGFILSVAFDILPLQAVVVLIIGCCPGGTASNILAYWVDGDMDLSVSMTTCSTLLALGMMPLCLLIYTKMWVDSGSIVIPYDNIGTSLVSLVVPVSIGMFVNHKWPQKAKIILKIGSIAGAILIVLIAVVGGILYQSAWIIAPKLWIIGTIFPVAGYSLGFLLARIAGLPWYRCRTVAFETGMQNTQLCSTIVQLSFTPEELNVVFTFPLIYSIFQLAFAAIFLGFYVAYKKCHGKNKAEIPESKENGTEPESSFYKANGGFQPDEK

Key:
human LBAT = human LBAT (Homo sapiens, UniProt Q14973); assay: LBAT (h/m) assay: 3H-taurocholic acid uptake in human LBAT-overexpressing cells; details: read-out: hLBAT IC50, 0.3 μM 3H-taurocholic acid and 7.5 μM cold taurocholic acid, 20 minutes
human IBAT = human IBAT (Homo sapiens, UniProt Q12908); assay: IBAT (h/m) assay: 3H-taurocholic acid uptake in human IBAT-overexpressing cells; details: read-out: hIBAT IC50, 0.25 μM 3H-taurocholic acid and 5 μM cold taurocholic acid, 20 minutes, highest test concentration 10 μM

SMILES | pIC50 (human LBAT) | pIC50 (human IBAT) | Papp A→B (Caco-2 cells) [×10⁻⁶ cm/s] | Papp B→A (Caco-2 cells) [×10⁻⁶ cm/s]
CCCCC1CN(c2ccc(F)cc2)c2cc(SCC)c(O/C=C/C(=O)O)cc2S(=O)(=O)N1 (single isomer, unassigned) [31] | 9.05 | 5.84 | 6.3 | 5.7
CCCCC1CN(c2ccc(F)cc2)c2cc(SCC)c(O/C=C/C(=O)O)cc2S(=O)(=O)N1 (single isomer, unassigned) [32] | 6.50 | < 5.00 | – | –
